What was measured:
Test in all cases: drug sensitivity score (DSS) from 5-point dose-response viability curve (DSS (area-under-curve based score)); higher = more sensitive (stronger growth inhibition or killing); extreme values may be limits of the assay
Conditions in all cases: exposure time: 72 h; concentration range: 5 concentrations over 10,000-fold range
CAOV3 = system: CAOV3
Summary of the method: (§1)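 Drugs in DMSO or water were acoustically dispensed (Echo 550) into 384-well plates at five concentrations across a 10,000-fold range. Ovarian cancer and normal ovarian cells (1,500 per well) were then added, incubated for 3 days at 37°C with 5% CO2, and read for viability by CellTiter-Glo luminescence on a PHERAstar FS. From these readings, Breeze software derived a drug sensitivity score per cell line and drug, with higher values meaning more sensitive and zero meaning no response.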

COV318 = system: COV318
Summary of the method: as §1

COV362 = system: COV362
Summary of the method: as §1

HOSE1C = system: HOSE1C
Summary of the method: as §1

HOSE2C = system: HOSE2C
Summary of the method: as §1

JHOS2 = system: JHOS2
Summary of the method: as §1

Kuramochi = system: Kuramochi
Summary of the method: as §1

OV90 = system: OV90
Summary of the method: as §1

OVCAR4 = system: OVCAR4
Summary of the method: as §1

OVCAR5 = system: OVCAR5
Summary of the method: as §1

OVCAR8 = system: OVCAR8
Summary of the method: as §1

Ovsaho = system: Ovsaho
Summary of the method: as §1

NCc1ccc(OCCCc2sc(-c3ccc4c(c3)/C(=N/Nc3nc5ccccc5s3)CCC4)nc2C(=O)O)cc1 [WEHI-539]
drug sensitivity score (CAOV3): 0 | drug sensitivity score (COV318): 0 | drug sensitivity score (COV362): 0 | drug sensitivity score (HOSE1C): 4.3 | drug sensitivity score (HOSE2C): 1.9 | drug sensitivity score (JHOS2): 0 | drug sensitivity score (Kuramochi): 0 | drug sensitivity score (OV90): 0 | drug sensitivity score (OVCAR4): 0.7 | drug sensitivity score (OVCAR5): 0 | drug sensitivity score (OVCAR8): 0 | drug sensitivity score (Ovsaho): 2.4
